The values that follow are results of earlier work, collected in patent US20210322426A1, “METHODS OF TREATING CANCER WITH PI3K ALPHA INHIBITORS AND METFORMIN” (Genentech, Inc., priority 2018, published 2021).

By UniProt entry, the sequences of proteins in these tests, tags left out.
UniProt P03372, whole entry: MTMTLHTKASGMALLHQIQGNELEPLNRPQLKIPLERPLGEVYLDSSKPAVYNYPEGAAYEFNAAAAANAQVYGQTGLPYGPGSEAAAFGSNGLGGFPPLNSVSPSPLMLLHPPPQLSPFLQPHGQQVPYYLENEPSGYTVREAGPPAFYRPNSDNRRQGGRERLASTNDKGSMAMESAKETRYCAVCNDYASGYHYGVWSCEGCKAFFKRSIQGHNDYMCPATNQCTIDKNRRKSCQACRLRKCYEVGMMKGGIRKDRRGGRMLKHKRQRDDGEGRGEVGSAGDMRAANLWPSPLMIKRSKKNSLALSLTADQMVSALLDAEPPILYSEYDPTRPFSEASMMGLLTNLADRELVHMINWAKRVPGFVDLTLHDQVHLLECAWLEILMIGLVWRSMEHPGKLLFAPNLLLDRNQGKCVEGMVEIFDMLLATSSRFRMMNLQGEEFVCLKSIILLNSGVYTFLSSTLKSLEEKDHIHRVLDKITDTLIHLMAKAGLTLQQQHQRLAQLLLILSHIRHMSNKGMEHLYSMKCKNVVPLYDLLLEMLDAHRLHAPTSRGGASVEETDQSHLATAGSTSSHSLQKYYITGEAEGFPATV

For the data set, the target named is ER (Homo sapiens, UniProt P03372). The settings on record: greater than that of tamoxifen; cited from earlier work.

Regarding `C[C@]12CC[C@@H]3c4ccc(O)cc4C[C@@H](CCCCCCCCC[S+]([O-])CCCC(F)(F)C(F)(F)F)[C@H]3[C@@H]1CC[C@@H]2O` (stereo partly drawn) [fulvestrant, (7α,17β)-7-{9-[(4,4,5,5,5-pentafluoropentyl)sulfinyl]nonyl}estra-1,3,5(10)-triene-3,17-diol], the “affinity for the ER relative to tamoxifen” value was “approximately 100 fold”.
